Laboratory results published in patent US7244765B2, “Guanylhydrazone salts, compositions, processes of making and methods of using” (Cytokine Pharmasciences, Inc, priority 2004, dated 2007).

Assay: Solubility test of Semapimod salts (sonication at room temperature, filtration, HPLC against a Semapimod-4 HCl/4 H2O standard)
Format: physicochemical
Protocol: The product isolated as Semapimod-2 HCl/4 H2O was added to ca. 2 mL of solvents (H2O, 5% Dextrose solution, PBS, and 0.9% NaCl solution), and was sonicated at room temperature until the solid suspended in the solution. The mixture was passed through a Nylon syringe filter, and then 0.5 mL of the filtrate was diluted with MeOH before injection into the HPLC. […] For reference purpose, the solubility of Semapimod-4 HCl/4 H2O was determined according to the previous procedure.
The Semapimod salts mentioned in the above table were subjected to solubility tests using the same procedure outlined above.

L-lactate
Solubility in 5% dextrose solution, (mg/mL) (5% dextrose solution, molecular weight of each salt assumed 900, approximate readings): ≧49.9 mg/mL
Solubility in H2O and 5% dextrose solution (in words) (H2O and 5% dextrose solution, solutions less than saturation used in the test): soluble freely
Solubility in H2O, (mg/mL) (H2O from Pharmco, HPLC grade, molecular weight of each salt assumed 900, approximate readings): ≧59.2 mg/mL
Solubility (in words) (general statement on aqueous solubility): very good solubility
